The test concerns SOD1^G93A mice. Particulars: riluzole 16 mg/kg intraperitoneally once a day from age 10 weeks until death, mean ± SE.

`Nc1nc2ccc(OC(F)(F)F)cc2s1` [Riluzole]: the Survival period is reported as 134 ± 3 (6) day.

For the origin of these results see patent US20150265680A1, “THERAPEUTIC AGENT FOR AMYOTROPHIC LATERAL SCLEROSIS” (DAIICHI SANKYO COMPANY, LIMITED, priority 2012, published 2015).
